Assay results as given in patent publication US20090148905A1.

Tests used:
Assay in all cases: cell-based or functional assay
[1] = target: EGFR expressed on the surface of A431 cells (UniProt P00533)
human IL-13 (human) = human IL-13 (human) (UniProt P35225)
human TNF-α (human) = human TNF-α (human) (UniProt P01375)

Row | Substance | EGFR kinase assay (A431 cells), potency [1] [nM] | IL-13 cell-based neutralisation assay (HEK Blue-STAT6 reporter), EC50 (human IL-13 (human)) [nM] | MRC-5/TNF assay (IL-8 release), potency (human TNF-α (human)) [nM]
1 | DMS4029 (bispecific antibody) | 9.03 | 1.65 | –
2 | dual targeting anti-TNF/anti-EGFR mAbdAb (Example 10) (bispecific antibody) | 39.1 | – | 0.003
